Test results published in patent US6689742B1, “NY-ESO-1 peptide derivatives, and uses thereof” (Chancellors, Masters and Scholars of the University of …, priority 2000, dated 2004).

Tests used:
Format in all cases: cell-based, human
NY-ESO-1 specific CTLs = assay: stimulation of proliferation of NY-ESO-1 specific CTLs from PBLs of melanoma patients; settings: 10 nM peptide; larger amounts of native peptide necessary
CTLs = assay: 51Cr release assay in presence of reducing agent (DTT or TCEP); settings: 200 μM DTT or TCEP
[1] = system: ESO1 specific CTL clone ESO5; assay: recognition by specific CTLs, 51Cr release from peptide-pulsed T2 cells
[2] = system: NY-ESO-1 157-165 specific CTLs; assay: CTL assays of modified peptides

## SLLMWITQV [SEQ ID NO: 8]
NY-ESO-1 specific CTLs
  stimulation of CTLs at low peptide concentration: stimulated the CTLs
CTLs
  increase of antigenicity in the presence of reducing agent: no increase in antigenicity
[1]; CTL clone ESO5, compared with parental peptide SEQ ID NO: 2
  recognition by CTL, in words: recognized as efficiently as SEQ ID NO: 2
[1]; T2 targets, CTL clone ESO5, lymphocyte:target ratio 30:1, 4 hours, read-out: Peptide ([nM] 50%), concentration giving 50% maximal activity
  EC50: 1 nM
[2]
  increase of recognition by NY-ESO-1 157-165 specific CTLs as compared to SEQ ID NO: 2: about 1000 fold
